Some compounds may have been tested in ways that are not shown here.
System: Arabidopsis and tobacco plants
Assay: Homologous recombination frequency with GUS/LUC recombination reporter constructs
Conditions: in vivo

With ammonium nitrate the “effect on homologous recombination frequency” value was “largest increase in homologous recombination frequency”.
